Test results published in paper PMC11169557, “The Goldilocks paradigm: comparing classical machine learning, large language models, and few-shot learning for drug discovery applications” (Communications Chemistry, 2024).

Protein sequences, listed by entry. Tags and fused reporters are not part of them. Lines headed by an entry give the natural chain unless they say otherwise; changes in a name come on top.
UniProt Q9P0L2: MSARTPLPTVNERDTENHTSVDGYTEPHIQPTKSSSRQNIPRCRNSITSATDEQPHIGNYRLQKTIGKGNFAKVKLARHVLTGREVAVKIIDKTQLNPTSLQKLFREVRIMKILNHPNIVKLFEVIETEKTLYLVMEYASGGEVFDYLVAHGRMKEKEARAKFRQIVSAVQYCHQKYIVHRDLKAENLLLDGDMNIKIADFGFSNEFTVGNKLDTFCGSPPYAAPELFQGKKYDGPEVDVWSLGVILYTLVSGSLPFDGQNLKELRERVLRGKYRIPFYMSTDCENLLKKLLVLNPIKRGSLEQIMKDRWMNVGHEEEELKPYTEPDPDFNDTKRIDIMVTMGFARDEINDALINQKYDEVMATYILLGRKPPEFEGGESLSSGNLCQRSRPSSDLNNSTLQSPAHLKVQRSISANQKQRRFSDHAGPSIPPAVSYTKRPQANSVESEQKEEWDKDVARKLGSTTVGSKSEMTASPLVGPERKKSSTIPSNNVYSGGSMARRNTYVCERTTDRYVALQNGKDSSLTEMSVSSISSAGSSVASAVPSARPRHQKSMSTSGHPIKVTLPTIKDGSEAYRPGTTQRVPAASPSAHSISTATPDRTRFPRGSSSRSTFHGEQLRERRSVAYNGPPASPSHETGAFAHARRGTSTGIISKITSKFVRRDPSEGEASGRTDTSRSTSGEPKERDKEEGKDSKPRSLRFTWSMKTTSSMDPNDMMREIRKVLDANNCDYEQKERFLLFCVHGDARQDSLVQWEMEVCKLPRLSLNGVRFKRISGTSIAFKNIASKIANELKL

Biological target: MARK1 (Homo sapiens, UniProt Q9P0L2)
Experiment: MARK1 inhibition, IC50 determination (dose-response) using Z'-LYTE assay
Settings: hits of the initial screen followed up with dose-response curves; 1 = true MARK1 inhibitor

Compound: CN(C)C[C@@H]1CCn2cc(c3ccccc32)C2=C(C(=O)NC2=O)c2cn(c3ccccc23)CCO1.Cl [ruboxistaurin HCl]
- Active (Measured): 0
